Chains of the proteins cited; added tags and fusions are not shown. Residues count along the entry.
UniProt P00751, 470-764 limits assumed: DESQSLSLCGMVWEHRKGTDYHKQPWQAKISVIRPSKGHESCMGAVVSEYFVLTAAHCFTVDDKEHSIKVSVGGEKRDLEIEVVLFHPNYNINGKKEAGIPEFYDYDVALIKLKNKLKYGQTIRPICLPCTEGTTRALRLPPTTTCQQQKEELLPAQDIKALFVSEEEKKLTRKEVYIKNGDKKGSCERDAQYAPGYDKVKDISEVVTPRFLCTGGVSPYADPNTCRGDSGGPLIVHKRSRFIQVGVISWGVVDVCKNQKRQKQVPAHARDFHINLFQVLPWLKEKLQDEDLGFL

According to patent US20250243186A1, “PIPERIDINYL INDOLE DERIVATIVES, PREPARATION METHODS AND MEDICINAL USES THEREOF” (HANSOH BIO LLC, priority 2021, published 2025):

Tests used:
[1] = target: T1, Recombinant human Factor B catalytic domain (Homo sapiens (Human), UniProt P00751)
[2] = target: T1, Recombinant human Factor B catalytic domain; assay: Factor B binding assay by TR-FRET; conditions: read-out: Factor B TR-FRET IC50; 10 nM his-tagged Factor B catalytic domain, 100 nM tracer, 1 h

half-life [1] | IC50 [2] | SMILES
53.5 min | – | COc1cc(C)c2[nH]ccc2c1CN1CCC2(C[C@H]1c1ccc(C(=O)O)cc1C(F)F)CC(F)(F)C2
– | 1.8 nM | COc1cc(C)c2[nH]ccc2c1CN1CCC2(CC(F)C2)CC1c1ccc(C(=O)O)cc1 (single isomer, unassigned) [40 (Isomer 1)]
– | 3 nM | COc1cc(C)c2[nH]ccc2c1CN1CCC2(CC(F)C2)CC1c1ccc(C(=O)O)cc1 (single isomer, unassigned) [40 (Isomer 2)]
